Results published in publication PMC10253456, “Investigating the Contribution of Major Drug-Metabolising Enzymes to Possum-Specific Fertility Control” (International Journal of Molecular Sciences, 2023).

Legend:
CYP3A [1] = experiment: CYP3A catalytic activity (erythromycin N-demethylation) in mouse liver microsomes
CYP3A [2] = experiment: CYP3A catalytic activity (erythromycin N-demethylation) in possum liver microsomes
[3] = initial screen n=1, compounds without reported IC50 at 1 µM
[4] = initial screen n=1, compounds without reported IC50 at 5 µM

Structure (SMILES): COc1cc(/C=C/c2ccc(OC)cc2OC)cc(OC)c1 [TMS]
- Percent control catalytic activity at estimated IC50 (CYP3A [1]; [3]): 126 percent control
- Percent control catalytic activity at estimated 2-fold IC50 (CYP3A [1]; [4]): 140 percent control
- Percent control catalytic activity at estimated IC50 (CYP3A [2]; [3]): 105 percent control
- Percent control catalytic activity at estimated 2-fold IC50 (CYP3A [2]; [4]): 125 percent control
